{
  "source": "patent US6958335B2",
  "about": "“Treatment of gastrointestinal stromal tumors” (Novartis AG, priority 2000, dated 2005)",
  "tested_on": "unresectable and/or metastatic malignant gastrointestinal stromal tumors (GIST)",
  "conditions": "All doses (N = 147)",
  "method": "A phase 2, open-label, randomized multinational study was conducted in patients with unresectable and/or metastatic malignant gastrointestinal stromal tumors (GIST). […] The primary evidence of efficacy was based on objective response rates, and the time to response, duration of response, time to treatment failure and survival were also evaluated. Tumors were required to be measurable in at least one site of disease, and response characterization based on Southwestern Oncology Group (SWOG) criteria.",
  "data": [
    {"smiles": "CS(=O)(=O)O.Cc1ccc(NC(=O)c2ccc(CN3CCN(C)CC3)cc2)cc1Nc1nccc(-c2cccnc2)n1", "note": "[SALT I]", "values": [
      {"measurement": "Best response: Progressive disease", "result": "18 (12.2) n (%)"}
    ]}
  ]
}
